Earlier results on one substance are cited in US6566120B2, “Conversion of compactin to pravastatin by Actinomadura” (Massachusetts Institute of Technology, priority 1995, dated 2003).

The data set addresses T1, 3-hydroxy-3-methylglutaryl (HMG)-CoA reductase (Homo sapiens, UniProt P04035).
T1 sequence (P04035 1-888): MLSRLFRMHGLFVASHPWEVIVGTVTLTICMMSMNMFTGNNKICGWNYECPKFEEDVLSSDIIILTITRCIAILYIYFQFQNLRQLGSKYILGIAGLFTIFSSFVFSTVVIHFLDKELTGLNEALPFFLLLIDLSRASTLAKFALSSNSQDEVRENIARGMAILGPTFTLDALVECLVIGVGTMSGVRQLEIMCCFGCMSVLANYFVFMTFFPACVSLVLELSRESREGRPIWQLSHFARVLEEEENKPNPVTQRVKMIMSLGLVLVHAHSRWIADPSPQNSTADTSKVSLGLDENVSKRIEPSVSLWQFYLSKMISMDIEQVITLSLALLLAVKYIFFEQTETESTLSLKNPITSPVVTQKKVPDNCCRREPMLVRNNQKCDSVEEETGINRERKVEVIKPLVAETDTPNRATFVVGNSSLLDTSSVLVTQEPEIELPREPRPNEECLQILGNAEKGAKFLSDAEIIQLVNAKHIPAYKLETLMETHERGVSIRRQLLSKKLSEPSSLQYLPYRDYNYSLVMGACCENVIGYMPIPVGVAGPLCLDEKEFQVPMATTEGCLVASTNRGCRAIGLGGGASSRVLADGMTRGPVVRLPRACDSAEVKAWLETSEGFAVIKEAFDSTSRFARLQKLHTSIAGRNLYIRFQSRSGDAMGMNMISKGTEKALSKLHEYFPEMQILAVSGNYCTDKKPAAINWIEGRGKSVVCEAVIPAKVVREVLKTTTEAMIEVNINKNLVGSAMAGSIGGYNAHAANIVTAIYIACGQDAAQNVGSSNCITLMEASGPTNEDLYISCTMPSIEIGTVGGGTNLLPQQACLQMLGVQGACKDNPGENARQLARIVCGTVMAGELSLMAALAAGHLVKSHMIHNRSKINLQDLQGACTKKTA
The conditions noted are these: have been reported; cited from earlier work.

Consider compactin, for which the “inhibition of HMG-CoA reductase” value is reported as “competitive inhibitors”.
